This note sets out measurements from patent publication US9861706B2, “GLP-1 receptor agonist peptide gastrin conjugates” (priority 2011, dated 2018).

The chains behind the UniProt entries cited, without tags or fusion partners. Residues count along the entry.
UniProt P43220, 24-463: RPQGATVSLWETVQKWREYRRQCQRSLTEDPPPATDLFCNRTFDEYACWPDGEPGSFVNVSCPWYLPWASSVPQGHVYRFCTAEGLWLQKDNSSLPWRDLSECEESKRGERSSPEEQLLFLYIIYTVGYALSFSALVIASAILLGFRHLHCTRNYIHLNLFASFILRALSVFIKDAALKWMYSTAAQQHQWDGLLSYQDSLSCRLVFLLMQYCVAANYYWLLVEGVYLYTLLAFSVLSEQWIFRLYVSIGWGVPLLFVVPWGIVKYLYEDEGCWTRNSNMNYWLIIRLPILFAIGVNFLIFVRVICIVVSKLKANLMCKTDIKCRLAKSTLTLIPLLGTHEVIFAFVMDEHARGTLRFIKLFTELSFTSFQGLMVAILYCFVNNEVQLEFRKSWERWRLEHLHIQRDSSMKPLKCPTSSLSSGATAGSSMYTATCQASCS

Structures are written as SMILES.

For one assay, the target named is T1, human GLP-1 R (Homo sapiens, UniProt P43220).
T1 construct: expressed in transfected cells
As to the kind of experiment: Human GLP-1 receptor (GLP-1 R) efficacy assay, cAMP induction in HEK293 cells. The format is cell-based.

In the next assay the target is T2, human CCK-B R (Homo sapiens, UniProt P32239).
T2 construct: expressed in transfected cells
T2 sequence (P32239 1-447): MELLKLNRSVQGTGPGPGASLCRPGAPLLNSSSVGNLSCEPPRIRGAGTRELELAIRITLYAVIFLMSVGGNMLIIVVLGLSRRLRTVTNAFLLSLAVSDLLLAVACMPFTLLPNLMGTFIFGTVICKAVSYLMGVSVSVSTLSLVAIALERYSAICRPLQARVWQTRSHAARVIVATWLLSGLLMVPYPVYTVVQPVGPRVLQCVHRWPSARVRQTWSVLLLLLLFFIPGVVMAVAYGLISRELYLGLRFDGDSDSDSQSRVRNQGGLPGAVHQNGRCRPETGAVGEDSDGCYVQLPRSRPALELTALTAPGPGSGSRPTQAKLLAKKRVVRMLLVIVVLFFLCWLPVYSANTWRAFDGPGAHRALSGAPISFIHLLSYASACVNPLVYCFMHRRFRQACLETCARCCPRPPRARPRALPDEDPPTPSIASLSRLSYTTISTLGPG
Put plainly: CCK-B receptor (CCK-B R) efficacy assay, AlphaScreen SureFire p-ERK in HEK293 cells. The class given is cell-based.

Take `CCCCCCCCCCCCCCCC(=O)N[C@@H](CCC(=O)NCCCC[C@H](NC(=O)[C@H](CCC(=O)O)NC(=O)[C@@H](NC(=O)[C@H](Cc1ccccc1)NC(=O)[C@H](CC(C)C)NC(=O)[C@H](CCCNC(=N)N)NC(=O)[C@@H](NC(=O)[C@H](C)NC(=O)[C@H](CCC(=O)O)NC(=O)[C@H](CCC(=O)O)NC(=O)[C@H](CCC(=O)O)NC(=O)[C@H](CC(C)C)NC(=O)[C@H](Cc1ccc(O)cc1)NC(=O)[C@H](CCCCN)NC(=O)[C@H](CO)NC(=O)[C@H](CC(C)C)NC(=O)[C@H](CCC(=O)O)NC(=O)[C@H](CO)NC(=O)[C@@H](NC(=O)[C@H](Cc1ccccc1)NC(=O)[C@@H](NC(=O)CNC(=O)[C@H](CCC(=O)O)NC(=O)CNC(=O)[C@@H](N)Cc1c[nH]cn1)[C@@H](C)O)[C@@H](C)O)C(C)C)[C@@H](C)CC)C(=O)N[C@@H](CC(C)C)C(=O)N[C@@H](CCCCN)C(=O)NCCOCCOCC(=O)N[C@@H](CCC(N)=O)C(=O)N[C@@H](CCC(N)=O)C(=O)N[C@@H](Cc1ccc(O)cc1)C(=O)NCC(=O)N[C@@H](Cc1c[nH]c2ccccc12)C(=O)N[C@@H](CC(C)C)C(=O)N[C@@H](CC(=O)O)C(=O)N[C@@H](Cc1ccccc1)C(N)=O)C(=O)O` [Compound 8]: the results for the EC50 at human GLP-1 R and at human CCK-B R were 0.8 nM and 21 nM, respectively.

`CC[C@H](C)[C@H](NC(=O)[C@H](Cc1ccccc1)NC(=O)[C@H](CC(C)C)NC(=O)[C@H](CCCNC(=N)N)NC(=O)[C@@H](NC(=O)[C@H](C)NC(=O)[C@H](CCC(=O)O)NC(=O)[C@H](CCC(=O)O)NC(=O)[C@H](CCC(=O)O)NC(=O)[C@H](CC(C)C)NC(=O)[C@H](Cc1ccc(O)cc1)NC(=O)[C@H](CCCCN)NC(=O)[C@H](CO)NC(=O)[C@H](CC(C)C)NC(=O)[C@H](CCC(=O)O)NC(=O)[C@H](CO)NC(=O)[C@@H](NC(=O)[C@H](Cc1ccccc1)NC(=O)[C@@H](NC(=O)CNC(=O)[C@H](CCC(=O)O)NC(=O)CNC(=O)[C@@H](N)Cc1c[nH]cn1)[C@@H](C)O)[C@@H](C)O)C(C)C)C(=O)N[C@@H](CCC(=O)O)C(=O)N[C@@H](Cc1ccccc1)C(=O)N[C@@H](CC(C)C)C(=O)N[C@@H](CCCCN)C(=O)NCCOCCOCC(=O)N[C@@H](CCC(N)=O)C(=O)N[C@@H](CCC(N)=O)C(=O)N[C@@H](Cc1ccc(O)cc1)C(=O)NCC(=O)N[C@@H](Cc1c[nH]c2ccccc12)C(=O)N[C@@H](CC(C)C)C(=O)N[C@@H](CC(=O)O)C(=O)N[C@@H](Cc1ccccc1)C(N)=O` [Compound 11]: the values for the half-maximal effective concentration (EC50) at human GLP-1 R and at human CCK-B R were 0.098 nM and 59 nM, respectively.
